# Measured affinities in a library of Ab-14 light chain variants

The target is the same throughout: PDVDLGDISGINAS, from the HR2 region of SARS-CoV-2 spike.

Parent: Ab-14, a human scFv built as VH, a (GGGGS)3 linker, VL. Only the CDRs of the light chain vary.
VH: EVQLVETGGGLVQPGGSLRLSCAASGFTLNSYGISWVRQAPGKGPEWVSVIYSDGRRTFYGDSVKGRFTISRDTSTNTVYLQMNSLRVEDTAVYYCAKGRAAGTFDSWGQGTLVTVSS
VL: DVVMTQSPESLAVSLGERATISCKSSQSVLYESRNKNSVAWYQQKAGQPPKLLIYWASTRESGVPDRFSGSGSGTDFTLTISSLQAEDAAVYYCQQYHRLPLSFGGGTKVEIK

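The starting antibody came from a phage panning campaign against this peptide. These sequences belong to a second round, designed from the earlier measurements on random variants of the parent. Group labels follow the data file (En: ensemble of fine-tuned language models; GP: Gaussian process model; HC: hill climbing; Gen: genetic algorithm; Gibbs: Gibbs sampling; a sequence that several methods proposed may carry one label only). The scFvs were displayed on barcoded MATa yeast, the peptide on MATalpha yeast. After mating in shaken culture at 30 °C for 16 h, diploids were selected and their barcode pairs sequenced. Each replicate has its own calibration line, from reference interactions of the BCL2 family. There are six technical replicates.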

Each variant is given by its three light chain CDRs, as the data file delimits them; those of the parent are KSSQSVLYESRNKNSVA, WASTRES, QQYHRLPLS.
This list holds designs with more than six substitutions.
Kd is apparent (estimated from mating counts) and averaged on the log scale over replicates with a signal. Smaller is tighter.
A pair that was not seen in any replicate is written "nd"; this usually means weak binding, but a binder can also be missed.
Entries are sorted by rising average, undetected variants last.

For KLDGSDQYESRTKNSVA / DASTRES / QQYHRLPLS [GP_Gibbs], the assay gave 510 pM (6 of 6 replicates; controls 1 of 18). With KLDVSVLEKSRNKNSVA / QASTRES / QDYHRLPLS [GP_Gibbs] the result was 690 pM (6 of 6 replicates; controls 0 of 18). With KLDPSDLGESRNKNSVA / HASQREI / QQYHQLPLS [GP_Gibbs] the result was 850 pM (6 of 6 replicates; controls 2 of 18). The variant KLQMQVEMSSRNKNSVA / QANTRES / QQYHRLPLS [GP_Gibbs] gave 910 pM (6 of 6 replicates; controls 1 of 18). With KLEQEYLYGSRNKNSVA / QASLRES / QQYHRLPLS [GP_Gibbs] the result was 1.2 nM (6 of 6 replicates; controls 1 of 18). The variant KLSQSWLYLSRNVNAVA / EASQRLS / QDYHRLPLS [GP_Gibbs] showed 1.4 nM (6 of 6 replicates; controls 0 of 18). The variant KVSYSVEYEDRNKNSVA / MASQRNS / QQYHRLPLS [GP_Gibbs] showed 1.5 nM (6 of 6 replicates; controls 1 of 18). With TIGQSSHETSRNKNSVA / HASTRED / QQYDRLPLS [En_HC] the result was 2.2 nM (6 of 6 replicates; controls 2 of 18).

The variant IVSQSVLGESRNLNSVA / QTSERNY / QQYDRLPLS [En_HC] gave 2.2 nM (6 of 6 replicates; controls 0 of 18). The variant KFFQSGLDDQRNDNSVA / SASTRFS / QQYHRLPLS [GP_Gibbs] gave 2.2 nM (6 of 6 replicates; controls 0 of 18). The variant KFSYEYEMVNTAKESIA / DAHTVQM / QQYSRLPLA [En_Gibbs] showed 2.2 nM (6 of 6 replicates; controls 1 of 18). The variant FIEGFGEDSNRNSKNIA / SKELRQV / QQYDRLPLS [En_Gibbs] showed 2.5 nM (6 of 6 replicates; controls 0 of 18). The variant HMSEQEHGDNVGVGNMA / NAHETVA / QQYHHLPLS [En_Gibbs] showed 2.8 nM (6 of 6 replicates; controls 0 of 18). With TLHANIQYGGIMWSSIA / DNVQRAN / QQYTRLPLS [En_Gibbs] the result was 2.8 nM (6 of 6 replicates; controls 1 of 18). The variant KLGMTAEMELKNRNSVA / ELVTRMS / QQYNRLPLS [En_Gen] gave 3.1 nM (6 of 6 replicates; controls 0 of 18). The variant QLQYAPGESLRSTQSIA / DVNIKDM / QQYARLPLS [En_Gibbs] showed 3.2 nM (6 of 6 replicates; controls 1 of 18).

With KISQMVRVGSTHSNSIA / EEATRAK / QQYHRLPLS [En_Gen] the result was 3.6 nM (6 of 6 replicates; controls 0 of 18). The variant KMSISELYEDRNQNSVA / SASQRLE / QQYHRLPLS [GP_Gibbs] showed 4.0 nM (6 of 6 replicates; controls 0 of 18). The variant KLVNFMNRGTHHTSNIA / DAANRID / QQYYRLPLA [En_Gen] gave 4.3 nM (6 of 6 replicates; controls 1 of 18). The variant KVPGENLYESRNKNSVA / EASTRES / QDYHRLPLS [GP_Gibbs] showed 4.7 nM (6 of 6 replicates; controls 0 of 18). The variant KISMYLNKESKNKNSVA / EMVNRES / QQYDRLPLS [En_HC] gave 4.9 nM (6 of 6 replicates; controls 0 of 18). For KLTMITGLEKVSTNNVA / EMETREK / QQYNRLPLA [En_Gen], the assay gave 5.0 nM (6 of 6 replicates; controls 0 of 18). For ALRGVGYDEQVKHSAIA / DAEHANQ / QQYSMLPLS [En_Gibbs], the assay gave 5.7 nM (6 of 6 replicates; controls 0 of 18). The variant KLSQSTHIESFNRNNVA / EMTTRES / QSYDRLPLS [En_HC] showed 7.8 nM (6 of 6 replicates; controls 0 of 18).

With ALSDWEWAGEENINRIA / DRSALEW / QQYGRLPLS [En_Gibbs] the result was 8.9 nM (6 of 6 replicates; controls 0 of 18). For MVSQLMLWGLHAKYSIA / EAQTRLN / QQYDRLPLF [En_Gen], the assay gave 9.5 nM (2 of 6 replicates; controls 0 of 18). For KISQMSTIEMIMHNSVA / QTSTREN / QQYDRLPLS [En_HC], the assay gave 9.6 nM (6 of 6 replicates; controls 0 of 18). With KISQMIRVGSTHSNSIA / EEVTRMK / QQYHRLPLS [En_Gen] the result was 9.8 nM (6 of 6 replicates; controls 2 of 18). With KVSESMAFLSRNRNSVA / DNSTRGS / QQYHRLPLS [En_HC] the result was 11 nM (6 of 6 replicates; controls 2 of 18). The variant KITATMRFEQSKSNNIA / EVTTRSK / QQYYRLPLA [En_Gen] showed 13 nM (6 of 6 replicates; controls 0 of 18). With IFSQSVLMGNLTKNSVA / QASTRFP / QQYHRLPLI [En_HC] the result was 15 nM (6 of 6 replicates; controls 0 of 18). The variant LISGVWDYGSRNYNSVA / QTSTREE / QQYDRLPLE [En_HC] showed 15 nM (6 of 6 replicates; controls 0 of 18).

For ILSQMLLTAGNKHNSVA / QANNRED / QQYHRLPLS [En_HC], the assay gave 17 nM (6 of 6 replicates; controls 0 of 18). The variant KISYQYRFEQLSSNNIA / EVVTRLK / QQYHRLPLS [En_HC] gave 17 nM (6 of 6 replicates; controls 0 of 18). For QLSSITGHLSVEKNNVA / EMETREN / QQYDRLPLA [En_Gen], the assay gave 22 nM (4 of 6 replicates; controls 1 of 18). The variant MIEIIQDGYMEMRSAVA / DTSLVRM / QQYYRLPLM [En_Gibbs] gave 29 nM (1 of 6 replicates; controls 0 of 18). The variant HMLYQFNTGSQRVNNVA / EGATVLD / QQYFRLPIT [En_Gibbs] showed 34 nM (6 of 6 replicates; controls 2 of 18). The variant ALEMDTLGQKPKQNNIA / NDRMSTE / QQYYMLPLS [En_Gibbs] gave 45 nM (5 of 6 replicates; controls 0 of 18). The variant ILSQSVLMGMHTKNNVA / QATMRFN / QQYHRLPFM [En_HC] gave 56 nM (6 of 6 replicates; controls 0 of 18). The variant QLESLMGESYAEKENIA / EGEQRFS / QQYVRLPLH [En_Gibbs] showed 77 nM (4 of 6 replicates; controls 0 of 18).

The variant TISNMFMMENQFKNSVA / QASTREN / QCYDRLPLS [En_HC] showed 87 nM (6 of 6 replicates; controls 1 of 18). The variant SLGLSTMLEEYVRNSVA / NNSTRED / QQYDRLPLS [En_Gen] gave 110 nM (2 of 6 replicates; controls 2 of 18). The variant MMSMGYLGGMRAKNNVA / QEETREN / QQYHRLPLI [En_HC] gave 150 nM (3 of 6 replicates; controls 0 of 18). The variant TIGGTLMYGVMNRSNVA / EVSQRLN / QQYDRLPLI [En_Gen] gave 150 nM (6 of 6 replicates; controls 2 of 18). The variant MISMMHASQYNESSSIA / NAEALNS / QQYHELPLS [En_Gibbs] gave 280 nM (6 of 6 replicates; controls 1 of 18). The variant NLNDSDMYAQIMTDNIA / QETQRNE / QQYAKLPLS [En_Gibbs] gave 290 nM (4 of 6 replicates; controls 2 of 18). With KLGQTVGYEQRNKSRVA / DNSTRES / QQYDRLPLS [En_HC] the result was 360 nM (6 of 6 replicates; controls 0 of 18). The variant HLYFPWQSGQDSMQNVA / NDSTLMT / QHYNRLPLS [En_Gibbs] gave 400 nM (1 of 6 replicates; controls 1 of 18).

For QIQFFIENDAEWGDSIA / EVSATTA / QQYHRLPLA [En_Gibbs], the assay gave nd (0 of 6 replicates; controls 0 of 18). With ILSQMMLAAGNKHSSVA / QANNRND / QQYHRLPLS [En_HC] the result was nd (0 of 6 replicates; controls 0 of 18). For TFNLEYMGMMKDHNSIA / ETEHKTP / QQYFRLPIS [En_Gibbs], the assay gave nd (0 of 6 replicates; controls 0 of 18). The variant TISELYNQSLGMRNNVA / NNQTRED / QQYDRLPLS [En_Gen] showed nd (0 of 6 replicates; controls 0 of 18).

The range of this assay differs from that of the first round, and the authors advise against merging the two.
The authors' rule: three or more of the six replicates give a measured affinity, fewer mean a poor binder.
As a blank, each scFv also met three strains without target: over all light chain designs, 4% of these pairings were detected, typically at 430 nM and seldom below 38 nM. The control count says in how many pairings with the empty strains this scFv gave a signal.

Values reported by Li et al. 2023, doi:10.1038/s41467-023-39022-2 (FLAb copy).